Laboratory results from patent US8252329B2.
In brackets after ≈: the same amount, converted by molar mass. Several values for one entry are separate records, joined by “and”; a condition that tells them apart may be missing. Identical values can stand only once. This is a selection: effects in other tests are not listed, and their absence says nothing.

How the values were obtained:
[1] = PK of sublingual alfentanil formulation vs IV (Example 12); settings: Beagle dog
[2] = cited from earlier work
[3] = PK of sufentanil from fast, intermediate and slow sublingual formulations vs IV (Example 10); settings: Beagle dog; IV bolus Sufenta, 5 μg sufentanil base; n=3
[4] = Bioavailability and PK of sufentanil, sublingual formulation #44 vs IV (Example 7); settings: Beagle dog, IV bolus
[5] = PK of sufentanil after sublingual solution instillation or oral ingestion of NanoTab vs IV (Examples 8, 9); settings: Beagle dog
[6] = PK of sufentanil from NanoTab formulations in human volunteers, crossover clinical study (Example 13); settings: IV infusion, 5 μg, normalized by literature IV half-life 148 min
[7] = PK of sublingual fentanyl formulations vs IV Sublimaze (Example 11); settings: Beagle dog; IV bolus Sublimaze, 70 μg fentanyl base; n=3
[8] = IV bolus Alfenta, 253 μg alfentanil base, n=3
[9] = IV bolus Sufenta, 5 μg sufentanil base
[10] = sublingual instillation of solution, 5 μg, n=6

Compound | Plasma Half-life [1, 8] [min] | Tonset (time to reach 50% of Cmax) [1, 8] [min] | Therapeutic Time Ratio ([1]; IV bolus, 253 μg, normalized by published IV half-life 104 min, listed as alfentanil) | Solubility in water [2] [µg/mL] | logP (o/w) [2] | pKa [2] | Cmax [3] [ng/mL] | Plasma Half-life [3] [min] | Tonset (time to reach 50% of Cmax) [3] [min] | Tonset (time to reach 50% of Cmax) ([4]; 5 μg sufentanil base, n=3) [min] | Therapeutic Time Ratio ([4]; 5 μg, time above 50% of Cmax / literature IV half-life 139 min, listed as sufentanil) | Cmax [5, 9] [ng/mL] | Tonset (time to reach 50% of Cmax) [5, 9] [min] | coefficient of variation of Cmax ([5]; sublingual instillation of solution, 5 μg) [%] | Cmax [5, 10] [ng/mL] | Tonset (time to reach 50% of Cmax) [5, 10] [min] | F (bioavailability compared to IV) ([5]; sublingual instillation of solution, 5 μg, n=6, listed as Sufentanil solution) [%] | F (bioavailability compared to IV) ([5]; sublingual instillation of solution, 5 μg, n=6, listed as sufentanil) | Therapeutic Time Ratio [6] | Tonset (time to reach 50% of Cmax) [7] [min]
CCC(=O)N(c1ccccc1)C1(COC)CCN(CCn2nnn(CC)c2=O)CC1 | 4.4 | 0.5 ± 0.05 | 0.04 | 130000 (≈ 312000 µM) | 0.006 | 6.5 |  |  |  |  |  |  |  |  |  |  |  |  |  | 
CCC(=O)N(c1ccccc1)C1(COC)CCN(CCc2cccs2)CC1 |  |  |  | 97 (≈ 251 µM) | 3.38 |  | 1.0021 ± 0.1491 | 7.9 ± 2.5 | 0.6 ± 0.0 | 0.05 ± 0.06 | 0.05 | 0.5947 ± 0.0981 | 0.5 ± 0.03 | 72 | 0.2093 ± 0.1655 | 2.7 ± 1.3 | 40.0 ± 32.5 | 40% and 40.0±32.5% | 0.067 | 
CCC(=O)N(c1ccccc1)C1CCN(CCc2ccccc2)CC1 |  |  |  | 200 (≈ 594 µM) | 2.93 |  |  |  |  |  |  |  |  |  |  |  |  |  |  | 0.6 ± 0.0
